From PubChem BioAssay (Tox21)
Values joined by “and” are separate entries in the source; they are usually repeats but may differ in a detail not shown here. Identical values can stand only once. The entries are a selection whose mix differs from that of the whole data set. Inconclusive results are not listed. Active and inactive are the calls of the source. Unless noted, calls come from the whole dose curve.

Sequences of proteins named here, by UniProt entry; tags and fusion partners are left off.
UniProt P30968, whole entry: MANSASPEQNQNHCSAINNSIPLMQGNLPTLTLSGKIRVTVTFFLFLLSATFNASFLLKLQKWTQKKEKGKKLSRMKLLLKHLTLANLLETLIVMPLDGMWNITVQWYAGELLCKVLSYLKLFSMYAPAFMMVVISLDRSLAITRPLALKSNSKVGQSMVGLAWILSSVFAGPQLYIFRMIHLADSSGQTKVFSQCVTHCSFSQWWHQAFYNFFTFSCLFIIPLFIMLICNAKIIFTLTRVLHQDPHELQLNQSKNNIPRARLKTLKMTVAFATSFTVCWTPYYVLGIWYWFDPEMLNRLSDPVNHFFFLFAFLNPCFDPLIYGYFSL
UniProt Q969F8, whole entry: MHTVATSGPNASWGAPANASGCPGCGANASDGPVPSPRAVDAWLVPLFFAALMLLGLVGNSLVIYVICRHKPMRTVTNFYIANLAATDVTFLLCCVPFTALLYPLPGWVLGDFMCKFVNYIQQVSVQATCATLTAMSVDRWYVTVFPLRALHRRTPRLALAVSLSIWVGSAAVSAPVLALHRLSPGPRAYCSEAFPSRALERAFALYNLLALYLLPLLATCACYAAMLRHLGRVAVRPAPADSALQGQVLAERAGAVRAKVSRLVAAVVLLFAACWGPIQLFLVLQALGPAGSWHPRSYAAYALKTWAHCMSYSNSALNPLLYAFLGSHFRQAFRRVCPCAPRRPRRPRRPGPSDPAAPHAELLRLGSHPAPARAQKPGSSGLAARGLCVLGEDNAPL
UniProt P28223, whole entry: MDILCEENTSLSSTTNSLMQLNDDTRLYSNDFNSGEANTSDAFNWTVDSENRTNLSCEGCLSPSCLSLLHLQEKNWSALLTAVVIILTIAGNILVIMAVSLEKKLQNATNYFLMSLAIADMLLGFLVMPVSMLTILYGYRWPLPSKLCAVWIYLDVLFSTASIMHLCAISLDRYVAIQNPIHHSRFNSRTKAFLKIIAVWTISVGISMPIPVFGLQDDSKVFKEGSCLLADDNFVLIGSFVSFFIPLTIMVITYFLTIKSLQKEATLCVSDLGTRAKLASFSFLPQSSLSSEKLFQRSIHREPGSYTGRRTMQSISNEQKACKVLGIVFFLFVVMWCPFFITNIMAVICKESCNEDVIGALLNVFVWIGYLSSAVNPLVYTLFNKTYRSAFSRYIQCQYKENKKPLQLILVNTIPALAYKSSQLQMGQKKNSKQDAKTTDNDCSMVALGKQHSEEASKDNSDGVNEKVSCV
UniProt P11229, whole entry: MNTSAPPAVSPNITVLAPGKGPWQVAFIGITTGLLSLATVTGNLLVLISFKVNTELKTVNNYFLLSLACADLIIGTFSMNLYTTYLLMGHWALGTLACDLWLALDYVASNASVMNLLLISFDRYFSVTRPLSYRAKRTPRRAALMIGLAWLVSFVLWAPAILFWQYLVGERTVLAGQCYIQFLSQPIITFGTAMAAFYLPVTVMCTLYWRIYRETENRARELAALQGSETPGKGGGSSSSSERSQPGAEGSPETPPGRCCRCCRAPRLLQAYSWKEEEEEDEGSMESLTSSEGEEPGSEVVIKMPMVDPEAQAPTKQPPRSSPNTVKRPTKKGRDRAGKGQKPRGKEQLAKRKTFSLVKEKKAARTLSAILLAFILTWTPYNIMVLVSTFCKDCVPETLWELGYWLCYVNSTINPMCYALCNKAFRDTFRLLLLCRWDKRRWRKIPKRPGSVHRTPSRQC
UniProt P07550, whole entry: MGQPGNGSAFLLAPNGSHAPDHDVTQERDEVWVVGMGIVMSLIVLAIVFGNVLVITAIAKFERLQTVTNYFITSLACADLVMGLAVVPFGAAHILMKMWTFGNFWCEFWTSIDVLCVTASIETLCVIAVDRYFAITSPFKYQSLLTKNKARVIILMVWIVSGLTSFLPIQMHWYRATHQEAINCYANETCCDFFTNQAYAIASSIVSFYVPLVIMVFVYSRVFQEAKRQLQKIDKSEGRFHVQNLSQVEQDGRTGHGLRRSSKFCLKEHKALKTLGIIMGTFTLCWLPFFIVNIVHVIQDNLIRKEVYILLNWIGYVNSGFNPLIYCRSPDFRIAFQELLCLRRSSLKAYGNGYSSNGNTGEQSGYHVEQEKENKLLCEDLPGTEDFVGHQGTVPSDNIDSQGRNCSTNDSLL
UniProt P14416, whole entry: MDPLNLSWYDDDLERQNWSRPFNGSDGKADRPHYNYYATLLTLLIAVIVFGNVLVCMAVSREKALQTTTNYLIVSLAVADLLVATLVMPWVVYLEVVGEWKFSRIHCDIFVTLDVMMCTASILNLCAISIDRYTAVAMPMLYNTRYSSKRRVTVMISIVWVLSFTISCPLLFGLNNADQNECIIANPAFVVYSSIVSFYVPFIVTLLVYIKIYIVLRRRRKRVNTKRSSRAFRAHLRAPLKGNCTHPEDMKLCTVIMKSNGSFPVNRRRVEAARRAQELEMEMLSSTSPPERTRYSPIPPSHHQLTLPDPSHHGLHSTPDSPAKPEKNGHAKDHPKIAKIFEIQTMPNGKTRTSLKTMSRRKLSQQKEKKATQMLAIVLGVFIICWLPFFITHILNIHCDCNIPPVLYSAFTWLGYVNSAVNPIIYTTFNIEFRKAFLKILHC

Key:
[1] = Nuclear factor erythroid 2-related factor 2/antioxidant responsive element (Nrf2/ARE) small molecule agonists: qHTS cell viability counter screen in human keratinocytes (AID 1919968; active = well fitted curve in the direction sought with a large enough effect in the repeat runs; an effect the other way counts as inactive or inconclusive; note: nearly all actives have a fitted effect of over 55% in size); conditions: KeratinoSens HaCaT ARE cells viability, CellTiter-Fluor, 24 h; at 92.4 µM (top of the series) unless noted
Procedure, shortened: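 HaCaT ARE reporter line, 1,500 cells/well; 5 h settle, 37 C/5% CO2; cpd in DMSO pinned; 23 h exposure; CellTiter-Fluor, 1 h; fluorescence.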

[2] = target: Gonadotropin-releasing hormone receptor (Homo sapiens) (UniProt P30968); test: Human gonadotropin-releasing hormone receptor (GnRHR) small molecule agonists, calcium flux assay in GnRHR-HEK293 cells (AID 1920063); conditions: calcium flux fluorescence, agonist mode, hits give high values; at 57.6 µM (top of the series) unless noted; note: nearly all actives have a fitted effect of over 35% in size
Procedure, shortened: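 GnRHR-HEK293, 1500 cells/well, 18 h 37 C/5% CO2; Ca dye 1 h 37 C; cpd pinned (DMSO), agonist mode; kinetic FL 480/540, 3 min, 1 s reads; 15 conc, n=3.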

[3] = target: KiSS-1 receptor (Homo sapiens) (UniProt Q969F8); test: Human kisspeptin (KISS1R) small molecule agonists, calcium flux assay in KISS1R-HEK293 cells (AID 1920064; active = well fitted curve in the direction sought with a large enough effect in the repeat runs; an effect the other way counts as inactive or inconclusive); conditions: KISS1R-HEK293, calcium flux fluorescence, agonist; at 76.8 µM (top of the series) unless noted
Procedure, shortened: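 Stable human KISS1R HEK293 line; 18 h plating, 37 C/5% CO2; calcium dye 1 h 37 C; compound pin transfer; kinetic fluorescence Ex/Em 480/540, 3 min.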

[4] = G protein-coupled receptor (GPCR) small molecule agonists, calcium flux assay: HEK293 wild type cell line counter screen (AID 1920065); conditions: HEK293 WT calcium flux, fluorescence, agonist mode; at 57.6 µM (top of the series) unless noted
Procedure, shortened: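 Kinetic fluorescence at Ex/Em 480/540, recorded every second over 3 min, served as the read-out after compound addition. Each compound was tested at 15 concentrations in triplicate on cells pre-loaded with calcium dye for 1 h.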

[5] = p53 small molecule agonists, cell-based qHTS assay with human liver microsomes (AID 1963577); conditions: HCT-116 p53RE-bla with human liver microsomes, ratio, 16 h; at 66 µM (top of the series) unless noted;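 note: p53 response element beta-lactamase reporter cells with liver microsomes plus NADPH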
Procedure, shortened: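 16 h, 37 C exposure of p53RE-bla cells to compounds with human liver microsomes and NADPH (0.5 mg/mL final each); detection via LiveBLAzer mixture, 2 h dark at room temperature.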

[6] = p53 small molecule agonists, cell-based qHTS assay with rat liver microsomes (AID 1963578); conditions: HCT-116 p53RE-bla, beta-lactamase ratio, 16 h; at 66 µM (top of the series) unless noted
Procedure, shortened: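 With rat liver microsomes and NADPH present (0.5 mg/mL final each), p53RE-bla cells are treated with compound for 16 h at 37 C. LiveBLAzer detection mixture is then applied for 2 h at room temperature in the dark.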

[7] = p53 small molecule agonists, cell-based qHTS assay with human liver microsomes: qHTS cell viability counter screen (AID 1963579); conditions: p53RE-bla HCT-116 viability, ATP luminescence, 16 h, HLM; at 66 µM (top of the series) unless noted; note: nearly all actives have a fitted effect of over 45% in size
Procedure, shortened: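 In this multiplexed counter screen, the reporter plates were subsequently treated with CellTiter-Glo so that cell viability, reflected by luminescence, could be recorded for p53RE-bla cells dosed 16 h with compounds under microsomal activation (HLM and NADPH).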

[8] = p53 small molecule agonists, cell-based qHTS assay with rat liver microsomes: qHTS cell viability counter screen (AID 1963580); conditions: p53RE-bla HCT-116 + rat microsomes, ATP viability, 16 h; at 66 µM (top of the series) unless noted; note: nearly all actives have a fitted effect of over 45% in size
Procedure, shortened: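 HCT-116 p53RE-bla, 4,000 cells/well, 5 h pre-incubation; cpd + rat liver microsomes 0.5 mg/mL + NADPH 0.5 mg/mL (final); 16 h, 37 C; CellTiter-Glo, 30 min RT; luminescence.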

[9] = p53 small molecule agonists, cell-based qHTS assay: qHTS cell viability counter screen (AID 1963581); conditions: p53RE-bla HCT-116 viability, ATP luminescence, 16 h; at 66 µM (top of the series) unless noted; note: nearly all actives have a fitted effect of over 45% in size
Procedure, shortened: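 HCT-116 p53RE-bla cells, 4,000/well, plated 5 h before compound pin transfer; 16 h at 37 C; bla substrate 2 h RT; then CellTiter-Glo, 30 min RT, luminescence.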

[10] = p53 small molecule agonists, cell-based qHTS assay (AID 1963582; active = well fitted activation curve with a large enough effect in the signal ratio in the repeat runs, not every such curve was filed as active; the % refers to the signal ratio); conditions: HCT-116 p53RE-bla reporter, beta-lactamase FRET ratio, 16 h; at 66 µM (top of the series) unless noted
Procedure, shortened: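 Reporter line: p53RE-bla. Pre-incubation 5 h, 37 C, 5% CO2; compound (DMSO, pin tool) 16 h, 37 C; B/G FRET substrate 2 h RT; fluorescence intensity read.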

[11] = target: 5-hydroxytryptamine receptor 2A (Homo sapiens) (UniProt P28223); test: 5-hydroxytryptamine receptor 2A (HTR2A) small molecule antagonists, cell-based qHTS assay (AID 1963586); conditions: HTR2A-CHO cells, DOI-induced calcium flux, fluorescence; at 61.5 µM (top of the series) unless noted; note: nearly all actives have a fitted effect of over 45% in size
Procedure, shortened: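 Antagonist-mode intracellular calcium assay: DOI (4 nM) added after 5 min compound pre-incubation at room temperature to dye-loaded HTR2A-CHO cells. Fluorescence followed for 3 min, sampled every second.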

[12] = target: 5-hydroxytryptamine receptor 2A (Homo sapiens) (UniProt P28223); test: 5-hydroxytryptamine receptor 2A (HTR2A) small molecule agonists, cell-based qHTS assay (AID 1963587); conditions: HTR2A-CHO cells, calcium flux fluorescence, agonist mode; at 76.8 µM (top of the series) unless noted; note: nearly all actives have a fitted effect of over 30% in size
Procedure, shortened: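 Kinetic calcium-flux fluorescence (2 min, 1 sec intervals) after compound addition in agonist mode. HTR2A-CHO cells were cultured 18 h, then dye-loaded 1 h at 37 C.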

[13] = target: Muscarinic acetylcholine receptor M1 (Homo sapiens) (UniProt P11229); test: Cholinergic receptor muscarinic 1 (CHRM1) small molecule antagonists, cell-based qHTS assay (AID 1963588); conditions: CHRM1-CHO antagonist mode, calcium flux fluorescence; at 61.5 µM (top of the series) unless noted; note: nearly all actives have a fitted effect of over 40% in size
Procedure, shortened: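 CHRM1-CHO calcium-flux assay, antagonist mode. Cells were seeded 18 h, dye-loaded 1 h at 37 C and given compound for 5 min at RT, then acetylcholine was added at 50nM. FDSS fluorescence was read 3 min; 15 concentrations, three runs.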

[14] = target: Muscarinic acetylcholine receptor M1 (Homo sapiens) (UniProt P11229); test: Cholinergic receptor muscarinic 1 (CHRM1) small molecule agonists, cell-based qHTS assay (AID 1963589); conditions: CHRM1-CHO cells, agonist mode, calcium flux fluorescence; at 76.8 µM (top of the series) unless noted; note: nearly all actives have a fitted effect of over 35% in size
Procedure, shortened: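 Human M1 in stable CHO line; 18 h plating, 1 h dye load 37 C; cpd added (agonist mode); Ca2+ fluorescence kinetic read, 1 s intervals; 15 conc, 3 runs.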

[15] = target: Beta-2 adrenergic receptor (Homo sapiens) (UniProt P07550); test: Adrenergic beta2 receptor (ADRB2) small molecule antagonists, cell-based qHTS assay (AID 1963592); conditions: CHO-ADRB2 cells, isoproterenol-stimulated cAMP HTRF ratio, 0.5 h; at 92.4 µM (top of the series) unless noted; note: nearly all actives have a fitted effect of over 50% in size
Procedure, shortened: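 Cells (CHO, stable ADRB2 overexpression) incubated 18-20hr at 37C; compounds added from DMSO; agonist mix (1nM isoproterenol, 100uM IBMX, 25uM Ro-20-1724) added; 0.5hr RT; d2-cAMP and anti-cAMP-cryptate added; 1hr RT; 665/615 nm read.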

[16] = target: D(2) dopamine receptor (Homo sapiens) (UniProt P14416); test: Dopamine D2 receptor (DRD2) small molecule agonists, cell-based qHTS assay (AID 1963594); conditions: HEK293-DRD2 cAMP HTRF, agonist mode, 30 min; at 92.4 µM (top of the series) unless noted; note: nearly all actives have a fitted effect of over 35% in size
Procedure, shortened: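 cAMP accumulation in DRD2-HEK293 cells measured by HTRF after 1 h detection; compounds added 10 min before NKH477 (200nM […]) forskolin-analogue stimulation, 30 min at room temperature, with Ro20-1724 present at 0.1 mM final.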

[17] = target: D(2) dopamine receptor (Homo sapiens) (UniProt P14416); test: Dopamine D2 receptor (DRD2) small molecule antagonists, cell-based qHTS assay (AID 1963595; active = well fitted inhibition curve with a large enough effect in the signal ratio in the repeat runs, with a control signal flat; the % refers to the signal ratio); conditions: HEK293-DRD2 cAMP HTRF antagonist mode; at 92.4 µM (top of the series) unless noted
Procedure, shortened: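 HTRF cAMP read-out at 665 and 620 nm emission (340 nm excitation). Antagonist mode: compounds were tested against 12 nM quinpirole in DRD2-HEK293 cells, with 200 nM NKH477 raising cAMP and 0.1 mM Ro20-1724 blocking its breakdown.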
% is set by controls: 0 for no effect and ±100 for the full control effect.

O=[N+]([O-])c1ccccc1[N+](=O)[O-]
inactive: activity change, negative = cytotoxicity [1] 0.42% and -1.19% | activity change [2] 0.249% and -0.0953% | activation [3] -0.746% and 0.435% | activation [4] 0.174% and 0.485% | activation [5] -6.23% and -1.12% | activation [6] -3.02% and 0.0779% | activity change, negative = cytotoxicity [7] 1.42% and -2.97% | activity change, negative = cytotoxicity [8] -5.72% and -1.43% | activity change, negative = cytotoxicity [9] -4.66% and -1.13% | activation [10] -2.57% | activity, negative = inhibition [11] -1.63% and -10.7% | activation [12] 0.994% and 7.57% | activity, negative = inhibition [13] 45% and -7.01% | activation [14] -0.207% and -0.757% | activity change, negative = inhibition [15] -0.159% and 13.3% | activation [16] -0.179% and -6.6% | activity change, negative = inhibition [17] -9.09% and -4.37%
